## Measured affinities in a library of Ab-14 light chain variants

Antigen: PDVDLGDISGINAS, a 14-residue peptide of the SARS-CoV-2 spike HR2 region.

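The starting antibody came from a phage panning campaign against this peptide. Library AAYL50 holds single substitutions and randomly drawn double and triple substitutions in the CDRs. In AlphaSeq, yeast of one mating type display the scFv and yeast of the other type display the target. Binding brings cells together so that they mate, and sequencing counts the barcode pairs among the diploids. Scores were corrected for input abundance and mapped to Kd with protein pairs of known affinity run in the same pool. Mating was done three times.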

Parent scFv Ab-14: VH joined to VL by a (GGGGS)3 linker. Changes lie in the light chain CDRs alone.
VH: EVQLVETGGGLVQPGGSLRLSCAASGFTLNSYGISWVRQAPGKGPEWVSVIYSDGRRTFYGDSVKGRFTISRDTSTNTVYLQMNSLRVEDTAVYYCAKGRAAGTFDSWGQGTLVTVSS
VL: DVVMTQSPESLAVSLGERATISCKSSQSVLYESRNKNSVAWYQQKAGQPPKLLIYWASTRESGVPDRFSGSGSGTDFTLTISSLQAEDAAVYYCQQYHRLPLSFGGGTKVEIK

Variants are written as CDR1, CDR2 and CDR3 of the light chain (limits as in the source). Parent: KSSQSVLYESRNKNSVA, WASTRES, QQYHRLPLS. The read-out is the apparent dissociation constant on a log10 scale (nM): the lower, the stronger. A pair that was not seen in that replicate is written "ND"; this usually means weak binding, but a binder can also be missed. Three control strains display no target. For library AAYL50, 18% of the pairings with them gave a signal, with a median of 4.19 and one signal in twenty below 2.99, so weak values seen in few replicates may be background. For each scFv, signals with the empty controls are counted beside the result, with their mean in brackets.

CDR-L1	CDR-L2	CDR-L3	replicates, log10 nM	empty controls
KSSQSVLEESKNKNSVA	KASTRES	QQYHRLPLS	0.19 0.42 0.30	0 of 9
KSYQCVLYESRNKNSVA	WASTRES	QQYVRLPLS	ND ND ND	3 of 9 (4.24)
KSMQSVLWESRNKNSVA	WASTRES	QVYHRLPLS	3.65 3.63 4.26	4 of 9 (4.45)
KSMQSVLYESRNKNSVC	WASWRES	QQYHRLPLS	ND ND ND	5 of 9 (4.31)
KSSWSVLYQSRNKNSVA	WASTRES	QQYHRLPIS	2.05 1.88 1.82	1 of 9 (2.84)
KSSQSVLYESVNKNSVA	WASTREG	QQYHRLELS	ND ND ND	0 of 9
KSSQSVLYESRLKNSVA	WAQFRES	QQYHRLPLS	2.66 2.90 2.44	0 of 9
KSSQSVLYESRNKNSVA	WASTRES	PQYERLPLH	ND ND ND	0 of 9
KSSQSVLYESRNSNSVI	WARTRES	QQYHRLPLS	4.46 3.45 5.26	8 of 9 (4.51)
KSSQSVLYEDRNKNSVA	WASTRLS	QQYHRSPLS	3.02 2.74 3.49	0 of 9
KSSQSVLYSSRNKNSDY	WASTRES	QQYHRLPLS	ND ND ND	1 of 9 (4.38)
KSSQSVLYCSRTKNSVA	WASTRES	QQYHRLPLS	ND ND ND	0 of 9
KSSNSVRYESRNKNSVA	WASTRSS	QQYHRLPLS	2.61 2.23 2.66	1 of 9 (2.89)
KSSQSVHYESRYKNSVA	WASTRES	QNYHRLPLS	ND ND ND	0 of 9
KSSQSVLYESRNKYSVA	WASDREP	QQYHRLPLS	0.99 1.13 0.97	3 of 9 (3.86)
KSSQSVLYESRNKNSVA	WASTHES	QQYARFPLS	1.98 2.05 2.55	3 of 9 (3.94)
KSSQSVLYDSCNKNSVA	WASTRES	QQYHSLPLS	2.50 2.42 2.85	6 of 9 (4.54)
KSSQSVLYESRNKMSVA	WASTRES	QQYHRLWVS	ND 2.85 ND	0 of 9
KSSQSVLTESRYKNSVA	WASTRES	QQYKRLPLS	0.78 0.92 0.92	3 of 9 (4.34)
KSSQSVLYESRKKNSVC	WASTRES	QQYHPLPLS	ND ND ND	0 of 9
KSSQSVLYESRNKNSVA	WASTEEH	QQYKRLPLS	3.89 ND ND	1 of 9 (3.97)
KSSQSLLYESRNKNSVA	WASTRES	QWYQRLPLS	ND 4.27 3.49	2 of 9 (3.76)
KSSQSVLYESRNKNSVD	WASTRES	QQYVRLPGS	ND ND ND	4 of 9 (4.23)
KDKQSVLYESRNKNSVA	WASTRES	QQYHRLPLW	1.01 1.30 1.28	1 of 9 (4.61)
KSSQSVLLESRNKNSVA	WASTRES	QYYPRLPLS	ND 4.24 4.42	0 of 9
KSWQSVLYNSRNKNFVA	WASTRES	QQYHRLPLS	ND 5.28 5.17	3 of 9 (4.01)
KSSQSVLYESRNKNSYA	WACTREA	QQYHRLPLS	ND ND ND	0 of 9
KSTQSVLYESRNKNSVA	ADSTRES	QQYHRLPLS	0.14 0.58 0.41	0 of 9
KSSQSVLYEKRNKNSVS	WASTRES	QQYFRLPLS	4.12 ND 4.62	1 of 9 (3.91)
KSSQSVLYESRNKNSVL	WASTRCS	LQYHRLPLS	ND 3.20 ND	3 of 9 (3.34)
KESQSHLYESRNKNSVA	WASTRES	QQYHRLPLS	1.13 1.46 1.13	1 of 9 (3.97)
KSSQSVLYESRNPNSFA	WASTRWS	QQYHRLPLS	ND ND ND	0 of 9
KSSNMVLYESRNKNSVA	WASTRES	AQYHRLPLS	2.82 2.79 ND	1 of 9 (2.59)
KSSQSVLYESRNKNSWA	WASTRES	QQNHRLPLK	ND ND 3.42	2 of 9 (4.10)
KTSQSVLYESRNKNSFA	WASTRES	QQYHRAPLS	2.66 ND ND	0 of 9
KSSWSVLGESRNKNSVA	WASTRES	QQYHTLPLS	0.46 0.67 0.52	2 of 9 (3.22)
KSSQNVLYESRNKNSVA	WWSTRES	QQYHRLPLP	ND ND ND	3 of 9 (4.36)
KSSQSVLVESRNKNSVA	WASTRES	QQYHQEPLS	ND ND ND	2 of 9 (3.60)
KSSQSVLYESRNKNSFA	WASTRNS	QQYWRLPLS	2.97 2.55 2.18	1 of 9 (3.68)
KSMQSVLYESRNKNSVA	WASTRPS	QQYHRDPLS	1.95 1.67 2.15	1 of 9 (4.57)
KSSQNVLYESRNKNSVA	WASTRES	NQYHRRPLS	4.93 4.75 6.07	8 of 9 (4.54)
KSSQSVLYESRNKNSVA	WASLIES	QQYHRLTLS	ND ND ND	1 of 9 (3.35)
SSSKSVLYESRNKNSHA	WASTRES	QQYHRLPLS	ND ND ND	0 of 9
KPWQSVLYESRNKNSVA	YASTRES	QQYHRLPLS	1.15 1.24 1.23	1 of 9 (3.66)
KSSQSVWYESHNKNSVA	WASTRES	QQYHRLPKS	1.15 1.29 1.00	3 of 9 (4.12)
KSSQSVNYESRNKNQVA	WASTRES	QQYHRLPLS	2.97 1.97 2.22	1 of 9 (4.49)
KSNQSVLYESRNKNIVA	WASTRES	QQYHRLPLS	ND 4.86 4.75	3 of 9 (4.74)
KSSQSVLYESRNKESVA	WASTRES	QKYHYLPLS	ND ND ND	0 of 9

Excerpt, the first 4 entries:

CDR-L1	CDR-L2	CDR-L3	replicates, log10 nM	empty controls
KSSQSVLEESKNKNSVA	KASTRES	QQYHRLPLS	0.19 0.42 0.30	0 of 9
KSYQCVLYESRNKNSVA	WASTRES	QQYVRLPLS	ND ND ND	3 of 9 (4.24)
KSMQSVLWESRNKNSVA	WASTRES	QVYHRLPLS	3.65 3.63 4.26	4 of 9 (4.45)
KSMQSVLYESRNKNSVC	WASWRES	QQYHRLPLS	ND ND ND	5 of 9 (4.31)

The measurements come from Engelhart et al. 2022 (doi:10.1038/s41597-022-01779-4) through the FLAb antibody collection.